From article PMC4069103, “Computational Design of a pH Stable Enzyme: Understanding Molecular Mechanism of Penicillin Acylase's Adaptation to Alkaline Conditions” (PLoS ONE, 2014) come the findings set out here.

What is called Km is the concentration of substrate that gives half-maximal velocity. For orientation: kcat means the number of substrate molecules converted per active site and unit of time at saturation. The kcat/Km is the second-order rate constant that governs catalysis at low substrate concentration.

The data set relates to O=C(Cc1ccccc1)Nc1ccc([N+](=O)[O-])c(C(=O)O)c1. The data set is described as follows: purified protein. To be noted: pH 7.5, 25°C, 10 mM phosphate, 0.1 M KCl, hydrolysis.

In the case of “penicillin acylase from Escherichia coli (EcPA) (Escherichia coli; D773N)”, the Km was found to be 14.8 ± 0.5 µM, the kcat worked out at 19.5 s⁻¹ and the catalytic efficiency (kcat/Km) is 1.3e+06 M⁻¹ s⁻¹.
